Columns and labels:
[1] = Stability in simulated intestinal fluid (FaSSIF with porcine pancreatin), LC-MS; format: in vitro ADME; settings: for SIF Half life, percentage in parentheses below the half-life: meaning of % not defined in the table
[2] = Stability in simulated gastric fluid (SGF with pepsin, pH 1.2), LC-MS; format: in vitro ADME
Experimental: SGF was prepared by dissolving 320 mg Pepsin (Sigma®, P6887, from Porcine Stomach Mucosa) in 100 mL Blank SGF and stirred at room temperature for 30 minutes. The solution was filtered through 0.45 μm membrane and aliquot and stored at −20° C.
Experimental compounds of interest (at a concentration of 20 μM) were incubated with pre-warmed SGF at 37° C. […] Quenched samples were stored at 4° C. until the end of the experiment and centrifuged at 4,000 rpm for 10 minutes. The supernatant were diluted 1:1 with deionized water and analyzed using LC-MS. Percentage remaining at each time point was calculated based on the peak area ratio (analyte over internal standard) relative to the initial level at time zero. Half-lives were calculated by fitting to a first-order exponential decay equation using GraphPad.

Row | Substance | SIF Half life [1] | SIF Half life, percentage in parentheses below the half-life [1] | SGF Half life [2]
1 | Isovaleric acid-DTHFPCIKF-Lys[PEG11-Palm]-PRSK-[SAR]-CK-NH2 [compound 2] | <15 min | (1%) | 26 min
2 | Isovaleric acid-DTHFPCIKF-Lys[PEG11-Palm]-PRSKGCK-NH2 [compound 1] | <15 min | (1%) | <15 min
